# Values of other authors, collected in patent US11129825B2, “Polysubunit opioid prodrugs resistant to overdose and abuse” (Elysium Therapeutics, Inc., priority 2015, dated 2021).
# Tested on: opioid receptor
# Details: cited from earlier work
compound,measurement,setting,value
C=CCN1CC[C@]23c4c5ccc(O)c4O[C@H]2C(=O)CC[C@@]3(O)[C@H]1C5 [naloxone],Effect on morphine-like opioid agonists,"0.4-0.8 mg intramuscularly or intravenously, in man",prevent or reverse the effects of morphine-like opioid agonists
same,Blockade of the effect of heroin,one mg intravenously vs 25 mg of heroin,completely block the effect of 25 mg of heroin
